Results on 2 molecules are retold here after patent US11141423B2, “Methods of screening compounds useful for treatment of a liver disease” (Icahn School of Medicine at Mount Sinai, priority 2010, dated 2021).

The chains behind the UniProt entries cited, without tags or fusion partners.
UniProt P47746, whole entry: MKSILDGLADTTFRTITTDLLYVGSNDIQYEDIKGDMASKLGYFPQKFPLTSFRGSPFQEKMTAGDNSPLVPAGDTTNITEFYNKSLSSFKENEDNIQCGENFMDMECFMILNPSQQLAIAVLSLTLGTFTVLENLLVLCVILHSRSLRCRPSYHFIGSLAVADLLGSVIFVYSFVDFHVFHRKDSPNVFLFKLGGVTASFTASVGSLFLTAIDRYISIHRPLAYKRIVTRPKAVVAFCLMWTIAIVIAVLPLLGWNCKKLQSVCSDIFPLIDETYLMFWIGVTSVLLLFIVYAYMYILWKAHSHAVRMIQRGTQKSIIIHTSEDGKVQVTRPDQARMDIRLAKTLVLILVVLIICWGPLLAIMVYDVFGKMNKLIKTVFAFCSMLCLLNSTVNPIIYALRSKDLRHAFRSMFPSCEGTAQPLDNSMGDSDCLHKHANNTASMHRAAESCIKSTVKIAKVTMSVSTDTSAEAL
UniProt P20272, whole entry: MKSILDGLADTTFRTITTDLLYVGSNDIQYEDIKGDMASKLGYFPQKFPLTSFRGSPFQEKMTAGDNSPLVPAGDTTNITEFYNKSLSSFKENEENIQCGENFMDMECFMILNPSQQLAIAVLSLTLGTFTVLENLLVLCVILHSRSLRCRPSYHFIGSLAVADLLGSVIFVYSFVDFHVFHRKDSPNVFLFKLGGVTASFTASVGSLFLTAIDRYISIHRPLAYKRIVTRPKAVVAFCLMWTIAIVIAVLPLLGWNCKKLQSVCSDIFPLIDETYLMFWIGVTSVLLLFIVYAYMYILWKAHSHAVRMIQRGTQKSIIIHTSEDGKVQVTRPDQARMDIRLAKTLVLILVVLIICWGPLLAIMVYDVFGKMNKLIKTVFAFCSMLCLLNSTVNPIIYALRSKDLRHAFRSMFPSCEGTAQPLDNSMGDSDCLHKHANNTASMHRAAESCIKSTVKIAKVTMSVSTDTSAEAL
UniProt P25095, whole entry: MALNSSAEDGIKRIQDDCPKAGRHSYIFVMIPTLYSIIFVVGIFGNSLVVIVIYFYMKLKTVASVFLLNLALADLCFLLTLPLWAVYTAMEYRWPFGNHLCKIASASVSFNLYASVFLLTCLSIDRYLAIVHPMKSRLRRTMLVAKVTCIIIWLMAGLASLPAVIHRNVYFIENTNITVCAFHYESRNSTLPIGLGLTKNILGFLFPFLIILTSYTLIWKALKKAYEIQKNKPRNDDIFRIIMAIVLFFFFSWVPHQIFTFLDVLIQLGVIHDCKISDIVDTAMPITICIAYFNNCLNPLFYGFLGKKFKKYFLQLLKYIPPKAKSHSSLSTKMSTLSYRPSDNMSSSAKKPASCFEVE

In one assay the target is CB1R (Mus musculus, UniProt P47746). The following applies: three distinct models of chronic liver injury; cited from earlier work.
The target of assay [1] is T1, CB1R-AT1R heteromer (UniProt P30556+P47746).
T1 construct: Neuro2A cells expressing endogenous CB1R and recombinant AT1R; expressed in transfected cells; host or cells: Neuro2A stably expressing AT1R (CB1R endogenous)
Briefly: Ang II-mediated pERK in Neuro2A-AT1R cells. Type of assay: cell-based. The following applies: SR141716 1 μM.

The target in assay [2] is T2, CB1R-AT1R heteromer (Rattus norvegicus, UniProt P20272+P25095).
T2 construct: endogenous in cells; host or cells: primary hepatic stellate cells from ethanol-fed Sprague-Dawley rats (eHSCs)
Briefly: Ang II-mediated pERK in activated HSCs (eHSCs), Western blot. It counts as cell-based. The following applies: eHSCs from ethanol treated rats, Ang II stimulation, THL pretreatment 10 or 30 minutes, pERK normalized to total ERK.

In the next assay the test system is profibrogenic genes. Briefly: Profibrogenic gene expression in liver of CCl4 or vehicle treated mice. Type of assay: in vivo. The following applies: AM251 2 mg/kg co-administered with CGS21680, 6 hours. Here is the method: Murine model of liver fibrosis and human tissues. Wild-type C54b16 mice were treated with i.p. injections of CCl4 (2 mL/kg CCl4 mixed with mineral oil; 10% v/v) or mineral oil, 3 times a week for 8 weeks (n=5-6 per group). There were no deaths in any of the groups. […] Six hours after the injections, mice were sacrificed by CO2 narcosis. Aliquots of liver tissue (50-100 mg) were flash frozen and kept at −80° C. until RNA isolation. The tissue was minced and homogenized in TRIzol reagent, and RNA was extracted according to the manufacturer's instructions and then dissolved in sterile DEPC water and stored at −80° C. RT-PCR was performed as described:
Real-Time Quantitative Reverse Transcription-Polymerase Chain Reaction. Total RNA was isolated from 3×10^8 HSCs using the TRIzol method (Invitrogen, Carlsbad, Calif., USA). RNA (1.0 μg) was reverse-transcribed in 20 μl of buffer containing 50 μM oligo(dT)20, 25 mM MgCl2, 0.1 M dithiothreitol, 40 U/μl RNaseOUT, and 200 U/μl SuperScript III RT for 50 min at 50° C. The reaction was stopped by incubating the samples at 85° C. for 5 min, and 40 μl of nuclease-free water was added. Real-time PCR was performed by using the Brilliant SYBR Green QPCR Master Mix. The PCR template source was either 30 ng of first-strand cDNA or purified DNA standard. Primer sequences used to amplify the desired cDNA are detailed in Table 2. […]

Take `Cc1c(C(=O)NN2CCCCC2)nn(-c2ccc(Cl)cc2Cl)c1-c1ccc(Cl)cc1` [SR141716]: the Fibrosis progression entry on CB1R was “inhibits fibrosis progression”. Moreover, the “Ang II-mediated pERK blocked” value at CB1R-AT1R heteromer [1] is recorded as over 80%. Further, the “Effect on Ang II-mediated ERK phosphorylation in eHSCs” value is recorded as “prevents” at CB1R-AT1R heteromer [2] and “prevented” on CB1R-AT1R heteromer [2] (listed as CB1R specific antagonist).
For AM251, the “Effect on CGS-induced profibrogenic gene expression in liver” value in the assay with profibrogenic genes is recorded as “prevented”.
